Laboratory results as given in patent US9371387B2, “Composition for prevention or treatment of ischemic cardiac disease, comprising inhibitor against age-albumin synthesis or release of mononuclear phagocyte system cells as active ingredient” (GACHON UNIVERSITY OF INDUSTRY-ACADEMIC COOPERATION …, priority 2011, dated 2016).

What was measured:
human cardiomyocytes [1] = experiment: Cell viability (MTT assay) of cardiomyocytes treated with albumin or AGE-albumin; type: cell-based; conditions: human cardiomyocytes, 0, 1, 10, 20 μg/mL, 24 hours, FIGS. 6A and 6B
Description: Cardiomyocytes were suspended in DMEM (culture medium) containing 5% FBS, 5% HS (horse serum), […] gentamicin and 2.5 mg/mL amphotericin B, plated at a density of 1×10^6 cells/mL (10 mL) into 10 cm culture dishes, and maintained at 37° C. in a 5% CO2/95% atmosphere in an incubator. After 3 weeks of in vitro culture, the cells were treated with AGE-albumin and used in analyzing apoptosis-related properties.
(§1) Human cardiomyoctes were seeded at a density of 2×10^3 cells/well into 96-well plates. When reaching 80% confluence, the human cardiomyoctes were treated with various concentrations (0, 1, 10, 20 μg/mL) of albumin or AGE-albumin. After 24 hours of treatment, the cells were rinsed with PBS and examined for viability using an MTT [3-(4,5-dimethylthiazol-2-yl)-2,5-diphenyl tetrazolium bromide] assay. Absorbance in each well was read at 540 nm on a 96-well plate reader (VERSA Max, Molecular Devices) (FIGS. 6A and 6B). FIG. 6A is a graph of cell viability at various concentrations of albumin applied to cardiomyocytes while FIG. 6B is a graph of cell viability at various concentrations of AGE-albumin applied to cardiomyocytes.

[2] = test system: cardiomyocytes in rat heart tissues; experiment: Protective effect of sRAGE in myocardial infarction rats, cresyl violet staining of heart tissue; type: in vivo; conditions: sRAGE injected into heart tissue, FIG. 8
Description: Sprague-Dawley rats, each weighing 250-300 g, were prepared, and anaesthetized with a combination of ketamine (50 mg/kg) and xylazine (4 mg/kg). A 16-gauge catheter was inserted into the bronchus and connected with an artificial respirator. After the animal was fixed with a tape against a flat plate to secure the limbs and the tail, a 1 to 1.5 cm vertical incision was made left from the sternum, and the pectoralis major muscle was separated from the pectoralis minor muscle to ascertain the space between the 5th and 6th ribs. Then, the muscle therebetween was carefully 1 cm incised in a widthwise direction. A retractor was pushed in between the 5th and 6th ribs which were then separated further from each other. Since the upper part of the heart is typically covered with the thymus in rats, the thymus was pulled to the head using an angle hook to clearly view the heart. The figure of the left coronary artery was scrutinized to determine the range of artery branches to be tied. […]
To investigate the protective effect of soluble RAGE (sRAGE) on hypoxia-induced apoptosis of cardiomyocytes, sRAGE was injected into the heart tissue of rats. The relative levels of cardiomyocytes in rat heart tissues were evaluated by cresyl violet staining before microscopy (FIG. 8).

human cardiomyocytes [3] = experiment: Protective effect of sRAGE against AGE-albumin-induced cell death, in vitro assay; type: cell-based; conditions: co-treatment with sRAGE and AGE-albumin; FIG. 7
Description: as §1
To investigate the protective effect of sRAGE against AGE-albumin-induced cell death, human cardiomyocytes were treated with sRAGE alone, AGE-albumin alone or a combination of sRAGE/AGE-albumin, followed by reading absorbance at 540 nm (FIG. 7). FIG. 7 is a graph showing the protective effect of sRAGE on cardiomyocytes treated with AGE-albumin.

[4] = test system: blood monocytes of myocardial infarction rats; experiment: Immunohistochemistry of AGE-albumin in blood monocytes of myocardial infarction rats; type: in vivo, rat; conditions: myocardial infarction rats administered with sRAGE; FIG. 5
Description: Sprague-Dawley rats, each weighing 250-300 g, were prepared, and anaesthetized with a combination of ketamine (50 mg/kg) and xylazine (4 mg/kg). A 16-gauge catheter was inserted into the bronchus and connected with an artificial respirator. After the animal was fixed with a tape against a flat plate to secure the limbs and the tail, a 1 to 1.5 cm vertical incision was made left from the sternum, and the pectoralis major muscle was separated from the pectoralis minor muscle to ascertain the space between the 5th and 6th ribs. Then, the muscle therebetween was carefully 1 cm incised in a widthwise direction. […]
Immunohistochemistry was conducted on heart tissues from normal or myocardial infarction rats. […] After washing the secondary antibodies three times with PBS, coverslips were mounted onto glass slides using the Vectashield mounting medium (Vector Laboratories), and observed under a laser confocal fluorescence microscope (LSM-710, Carl Zeiss) (FIG. 4). […]
To examine the distribution and expression position of AGE-albumin in blood monocytes of rats, rats with myocardial infarctions were administered with sRAGE and blood monocytes from the rats were stained using immunohistochemistry for albumin (green), AGE (red), and DAPI (blue), followed by observation under a laser confocal fluorescence microscope (FIG. 5). […]

Substance | cell viability (human cardiomyocytes [1]) | relative levels of cardiomyocytes in the heart tissues [2] | viability of the human cardiomyocytes (human cardiomyocytes [3]) | albumin and AGE in blood monocytes [4]
AGE-albumin: a combination of albumin and AGE (advanced glycation end-product) | decreases with an increase in AGE-albumin concentration | – | – | –
albumin: multifunctional plasma protein, applied alone to cardiomyocytes as comparison | remained almost unchanged | – | – | –
sRAGE: soluble RAGE (sRAGE), described as a soluble antibody to AGE-albumin | – | dramatically increased | increased | decrease
